Measured values as given in PubChem BioAssay (Tox21).
Values joined by “and” are separate entries in the source; they are usually repeats but may differ in a detail not shown here. Identical values can stand only once. The list shows a part of the results, in another mix than the full data. Records with an inconclusive call do not appear. Active and inactive are the calls of the source. Unless noted, calls follow the shape of the dose curve; as a rule, active = well fitted curve in the direction sought with a large enough effect in the repeat runs; inconclusive = weak or mixed curves; inactive = no such curve, though single readings can be large; an effect the other way counts as inactive or inconclusive.

By UniProt entry, the sequences of proteins in these tests, tags left out.
UniProt P16473, whole entry: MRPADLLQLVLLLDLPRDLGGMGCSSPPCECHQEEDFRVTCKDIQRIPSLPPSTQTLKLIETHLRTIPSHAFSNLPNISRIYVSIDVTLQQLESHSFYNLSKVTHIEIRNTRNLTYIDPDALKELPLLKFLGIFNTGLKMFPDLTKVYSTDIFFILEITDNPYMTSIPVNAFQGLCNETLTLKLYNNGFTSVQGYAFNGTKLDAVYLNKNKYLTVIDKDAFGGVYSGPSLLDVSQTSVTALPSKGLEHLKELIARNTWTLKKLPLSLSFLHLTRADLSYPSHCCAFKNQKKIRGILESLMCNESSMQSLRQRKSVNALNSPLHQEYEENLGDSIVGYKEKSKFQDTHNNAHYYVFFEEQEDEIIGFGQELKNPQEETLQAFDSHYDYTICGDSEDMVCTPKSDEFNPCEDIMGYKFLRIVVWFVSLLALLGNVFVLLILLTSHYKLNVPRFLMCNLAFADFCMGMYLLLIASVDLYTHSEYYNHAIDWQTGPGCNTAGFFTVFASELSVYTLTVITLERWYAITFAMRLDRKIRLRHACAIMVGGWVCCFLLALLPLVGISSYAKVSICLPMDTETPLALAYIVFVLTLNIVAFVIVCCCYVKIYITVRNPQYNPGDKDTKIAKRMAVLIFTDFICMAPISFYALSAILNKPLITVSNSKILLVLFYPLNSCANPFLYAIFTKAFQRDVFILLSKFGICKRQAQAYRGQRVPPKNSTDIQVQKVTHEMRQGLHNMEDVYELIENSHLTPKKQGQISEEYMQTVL
UniProt P10275, whole entry: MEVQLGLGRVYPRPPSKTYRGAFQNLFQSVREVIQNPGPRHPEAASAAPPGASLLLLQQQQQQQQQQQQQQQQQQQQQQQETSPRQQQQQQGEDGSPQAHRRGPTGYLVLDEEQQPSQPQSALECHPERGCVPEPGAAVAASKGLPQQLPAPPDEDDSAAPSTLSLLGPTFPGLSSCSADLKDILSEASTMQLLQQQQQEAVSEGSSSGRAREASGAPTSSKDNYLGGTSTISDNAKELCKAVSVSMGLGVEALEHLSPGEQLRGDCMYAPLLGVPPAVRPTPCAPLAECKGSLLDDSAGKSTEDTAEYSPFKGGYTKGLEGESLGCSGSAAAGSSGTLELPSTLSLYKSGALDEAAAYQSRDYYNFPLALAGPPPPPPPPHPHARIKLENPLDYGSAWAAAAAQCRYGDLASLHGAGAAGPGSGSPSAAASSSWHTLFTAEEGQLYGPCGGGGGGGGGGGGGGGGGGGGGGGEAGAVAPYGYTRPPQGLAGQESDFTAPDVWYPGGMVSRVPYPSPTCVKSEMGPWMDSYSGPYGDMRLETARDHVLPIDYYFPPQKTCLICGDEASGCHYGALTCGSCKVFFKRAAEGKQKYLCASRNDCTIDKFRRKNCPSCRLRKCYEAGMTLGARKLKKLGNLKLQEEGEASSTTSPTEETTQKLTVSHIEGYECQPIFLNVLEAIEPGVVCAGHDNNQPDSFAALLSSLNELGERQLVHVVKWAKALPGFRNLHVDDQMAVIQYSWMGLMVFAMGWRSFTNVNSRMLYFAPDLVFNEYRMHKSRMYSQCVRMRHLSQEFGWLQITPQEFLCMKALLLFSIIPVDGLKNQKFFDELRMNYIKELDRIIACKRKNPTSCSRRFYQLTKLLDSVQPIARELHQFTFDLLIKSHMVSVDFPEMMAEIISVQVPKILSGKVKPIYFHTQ
UniProt P03372, whole entry: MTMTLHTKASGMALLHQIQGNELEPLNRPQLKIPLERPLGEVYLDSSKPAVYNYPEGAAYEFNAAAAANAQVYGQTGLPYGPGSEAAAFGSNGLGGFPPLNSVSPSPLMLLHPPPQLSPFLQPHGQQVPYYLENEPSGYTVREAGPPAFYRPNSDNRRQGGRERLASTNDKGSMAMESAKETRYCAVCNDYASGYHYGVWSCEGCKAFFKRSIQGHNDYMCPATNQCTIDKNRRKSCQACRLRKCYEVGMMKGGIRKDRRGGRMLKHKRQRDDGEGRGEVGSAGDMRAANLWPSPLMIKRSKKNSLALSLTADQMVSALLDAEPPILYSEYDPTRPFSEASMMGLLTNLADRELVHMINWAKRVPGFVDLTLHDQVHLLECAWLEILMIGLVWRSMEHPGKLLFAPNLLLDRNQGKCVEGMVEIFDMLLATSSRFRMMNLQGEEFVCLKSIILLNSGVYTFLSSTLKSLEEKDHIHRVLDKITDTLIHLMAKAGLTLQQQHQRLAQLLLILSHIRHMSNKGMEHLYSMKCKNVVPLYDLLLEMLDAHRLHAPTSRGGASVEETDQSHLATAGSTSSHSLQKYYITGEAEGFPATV
UniProt Q92731, whole entry: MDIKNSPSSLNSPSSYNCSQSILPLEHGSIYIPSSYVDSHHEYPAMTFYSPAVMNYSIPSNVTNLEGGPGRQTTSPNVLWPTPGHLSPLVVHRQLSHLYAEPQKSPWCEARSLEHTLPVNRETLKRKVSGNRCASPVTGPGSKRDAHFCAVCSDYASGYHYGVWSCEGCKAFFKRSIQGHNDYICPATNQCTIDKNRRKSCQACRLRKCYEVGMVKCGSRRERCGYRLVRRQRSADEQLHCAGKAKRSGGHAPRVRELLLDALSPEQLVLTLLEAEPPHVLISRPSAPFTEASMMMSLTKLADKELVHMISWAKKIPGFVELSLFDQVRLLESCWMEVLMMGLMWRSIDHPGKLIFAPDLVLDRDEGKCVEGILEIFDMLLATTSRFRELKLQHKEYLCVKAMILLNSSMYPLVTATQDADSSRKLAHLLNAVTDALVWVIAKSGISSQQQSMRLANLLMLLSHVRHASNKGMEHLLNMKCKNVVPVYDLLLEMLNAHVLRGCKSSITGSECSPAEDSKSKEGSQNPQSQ

Assays:
[1] = A CellTox Green Cytotoxicity Assay to monitor cytotoxicity in HepG2 cells - 8 hour (AID 1224890); conditions: CellTox Green fluorescence; at 76.8 µM (top of the series); also: nearly all actives have a fitted effect of over 45% in size
Outline: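 Fluorescent DNA-binding dye, 600 HepG2 cells/well, 5 h preincubation then compound in DMSO; same plates read at 0–40 h, 37 C.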

[2] = qHTS assay to identify small molecule antagonists of the estrogen receptor alpha (ER-alpha) signaling pathway using the BG1 cell line in the presence of 0.1 nM 17-beta-estradiol - cell viability counter screen (AID 1259241); conditions: VM7Luc4E2 (BG1) viability, CellTiter-Fluor protease, 22 h, 0.1 nM estradiol agonist added; at 92.4 µM (top of the series) unless noted; also: nearly all actives have a fitted effect of over 40% in size
Outline: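 VM7Luc4E2 cells (endogenous full-length ER-alpha, 4xERE-luciferase), cultured 5 days in charcoal-stripped serum, exposed to compounds with 0.1 nM 17beta-estradiol (final) for 22 hr at 37C. Viability read in same wells as live-cell protease fluorescence after 30 min.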

[3] = qHTS assay to identify small molecule antagonists of the androgen receptor (AR) signaling pathway using the MDA cell line in the presence of 0.5 nM R1881 - cell viability counter screen (AID 1259242); also: nearly all actives have a fitted effect of over 45% in size; also: potency is read from the fitted curve at half-maximal effect
Outline: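 Human breast carcinoma MDA-kb2 cells, cultured without CO2, receive compounds alongside 0.5 nM (final) R1881 agonist. After 16 hr at 37C, viability is taken as live-cell protease signal.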

[4] = qHTS assay to identify small molecule HDAC inhibitors (AID 1259364); conditions: HCT-116 HDAC-Glo I/II luminescence, 2 h; at 92.4 µM (top of the series) unless noted;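 also: wild-type HCT-116 cells with endogenous class I/II HDAC activity; top concentration of the series differs between compounds; nearly all actives have a fitted effect of over 45% in size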
Outline: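 After a 2 hr compound incubation (37C, 5% CO2), HCT-116 cells seeded at 1,500/well the day before received HDAC-Glo reagent; signal read as luminescence after 30 min at room temperature.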

[5] = qHTS assay to identify small molecule HDAC inhibitors - cell viability counter screen (AID 1259365); conditions: HCT-116 viability, CellTiter-Glo ATP luminescence, 2 h; at 92.4 µM (top of the series) unless noted; also: nearly all actives have a fitted effect of over 50% in size
Outline: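 Wild-type HCT-116 cells, 1,500/well, cultured overnight, then compound-treated 2 h at 37 C. Viability measured as ATP luminescence with CellTiter-Glo after 30 min at room temperature.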

[6] = qHTS assay to identify small molecule agonists of the sonic hedgehog signaling (Shh) pathway - cell viability counter screen (AID 1259366); conditions: NIH/3T3 Gli1-Luc viability, CellTiter-Fluor, 24 h; at 92.4 µM (top of the series) unless noted; also: nearly all actives have a fitted effect of over 50% in size
Outline: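 NIH/3T3-derived Gli1-Luc reporter cells, 2,000 per well, received compound after 4 h and were treated about 23 h at 37C. Viability measured in the same wells by CellTiter-Fluor fluorescence after 1 h.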

[7] = qHTS assay to identify small molecule antagonists of the sonic hedgehog signaling (Shh) pathway - cell viability counter screen (AID 1259367); conditions: NIH/3T3 Gli1-Luc viability, CellTiter-Fluor, 24 h; at 92.4 µM (top of the series) unless noted; also: nearly all actives have a fitted effect of over 55% in size
Outline: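 Fluorescence read-out (CellTiter-Fluor, 1 hr at 37C) taken after 23 hr compound treatment of 3T3 Gli1-Luc cells stimulated with conditioned medium. Cells were seeded at 2,000 per well and pre-incubated 4 hr.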

[8] = qHTS assay to identify small molecule agonists of the sonic hedgehog signaling (Shh) pathway (AID 1259368; calls by dose curve;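 also: NIH/3T3-derived 3T3Gli1-Luc cells carrying a stable Gli1-driven firefly luciferase reporter; nearly all actives have a fitted effect of over 15% in size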); conditions: NIH/3T3 Gli1-Luc reporter, luciferase, 24 h, hits give high values; at 92.4 µM (top of the series) unless noted
Outline: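 Stable NIH/3T3 Gli1-Luc reporter clone; 24 hr cpd exposure after a 4 hr settling period; luminescence endpoint.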

[9] = qHTS assay to identify small molecule antagonists of the sonic hedgehog signaling (Shh) pathway (AID 1259369; calls by dose curve; also: nearly all actives have a fitted effect of over 45% in size); conditions: NIH/3T3 Gli1-Luc reporter, Shh antagonist, luminescence 24 h; at 92.4 µM (top of the series) unless noted
Outline: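 Gli1 transcriptional reporter (firefly Luc) in NIH/3T3 background, conditioned-medium activated. 24hr exposure, luminescence endpoint.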

[10] = qHTS assay to identify small molecule agonists of the androgen receptor (AR) signaling pathway in the presence of an antagonist - cell viability counter screen (AID 1259379); also: nearly all actives have a fitted effect of over 25% in size; also: potency is read from the fitted curve at half-maximal effect;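 as to activity change, negative = cytotoxicity: MDA-kb2 human breast cancer cells carrying an MMTV luciferase reporter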
Outline: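 Counter screen for cell viability run in parallel with the AR agonist-mode luciferase assay. MDA-kb2 cells were co-treated with nilutamide (3.0uM final) and compounds, then incubated 16 hr at 37C, and CellTiter-Fluor fluorescence was measured.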

[11] = qHTS assay to identify small molecule agonists of the estrogen receptor beta (ER-beta) signaling pathway - cell viability counter screen (AID 1259380); conditions: ER-beta-bla HEK293T viability, CellTiter-Glo luminescence, 16 h; at 92.4 µM (top of the series) unless noted; also: nearly all actives have a fitted effect of over 30% in size
Outline: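 In this qHTS counter screen, HEK293T cells carrying an ER-beta/UAS beta-lactamase reporter, grown in 2% charcoal-stripped FBS, received compound for 16 hr; ATP-based CellTiter-Glo luminescence was then read after 30 min at room temperature.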

[12] = qHTS assay to identify small molecule antagonists of the estrogen receptor beta (ER-beta) signaling pathway - cell viability counter screen (AID 1259382); conditions: ER-beta-UAS-bla HEK293T viability, CellTiter-Glo luminescence, 16 h; at 92.4 µM (top of the series) unless noted; also: nearly all actives have a fitted effect of over 55% in size
Outline: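 HEK293T ER-beta-UAS-bla, 2% charcoal-stripped FBS; compounds + 1nM E2 16 hr 37C; CellTiter-Glo luminescence, 30 min RT.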

[13] = qHTS assay to identify small molecule agonists or antagonists of the thyroid stimulating hormone receptor (TSHR) signaling pathway - wild type cell line counter screen (AID 1259384; calls by dose curve); conditions: HEK293 wild type, cAMP HTRF counter-screen, hits give high values; at 92.4 µM (top of the series) unless noted
Outline: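 Wild-type Hek293 cells, 800/well, 18 h at 37C, then compound with Ro20-1724 for 30 min RT. cAMP by HTRF (cAMP-d2/anti-cAMP cryptate), 1 h RT, fluorescence read. 15 concentrations, triplicates.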

[14] = molecular target: Thyrotropin receptor (Homo sapiens) (UniProt P16473); test: qHTS assay to identify small molecule antagonists of the thyroid stimulating hormone receptor (TSHR) signaling pathway (AID 1259385; calls by dose curve; also: nearly all actives have a fitted effect of over 20% in size); conditions: TSHR-HEK293 cAMP HTRF, TSH-stimulated antagonist mode; at 92.4 µM (top of the series) unless noted
[15] = molecular target: Androgen receptor (Homo sapiens) (UniProt P10275); test: qHTS assay to identify small molecule antagonists of the androgen receptor (AR) signaling pathway using the MDA cell line in the presence of 0.5 nM R1881 (AID 1259243); conditions: MDA-kb2 MMTV-luciferase, R1881 0.5 nM, 16 h; at 92.4 µM (top of the series) unless noted; also: nearly all actives have a fitted effect of over 50% in size
[16] = molecular target: Estrogen receptor (Homo sapiens) (UniProt P03372); test: qHTS assay to identify small molecule antagonists of the estrogen receptor alpha (ER-alpha) signaling pathway using the BG1 cell line in the presence of 0.1 nM 17-beta-estradiol (AID 1259244); conditions: VM7Luc4E2 (BG1) ERE-luciferase, antagonist mode, 0.1 nM E2, 22 h; at 92.4 µM (top of the series) unless noted; also: nearly all actives have a fitted effect of over 50% in size
[17] = molecular target: Androgen receptor (Homo sapiens) (UniProt P10275); test: qHTS assay to identify small molecule agonists of the androgen receptor (AR) signaling pathway in the presence of an antagonist (AID 1259381; calls by dose curve; also: nearly all actives have a fitted effect of over 15% in size); conditions: MDA-kb2 MMTV-luciferase, AR agonist + nilutamide, 16 h; at 92.4 µM (top of the series) unless noted
[18] = molecular target: Estrogen receptor (Homo sapiens) (UniProt P03372); test: qHTS assay to identify small molecule agonists of the estrogen receptor alpha (ER-alpha) signaling pathway in the presence of an antagonist (AID 1259383; calls by dose curve; also: top concentration of the series differs between compounds; nearly all actives have a fitted effect of over 15% in size); conditions: VM7Luc4E2 cells, ERE-luciferase, +ICI-182,780, 22 h; at 92.4 µM (top of the series) unless noted
[19] = molecular target: Estrogen receptor beta (Homo sapiens) (UniProt Q92731); test: qHTS assay to identify small molecule agonists of the estrogen receptor beta (ER-beta) signaling pathway (AID 1259377; active = well fitted activation curve with a large enough effect in the signal ratio in the repeat runs, not every such curve was filed as active; the % refers to the signal ratio); conditions: ER-beta-UAS-bla HEK293T, beta-lactamase FRET ratio, 16 h; at 92.4 µM (top of the series) unless noted
[20] = molecular target: Estrogen receptor beta (Homo sapiens) (UniProt Q92731); test: qHTS assay to identify small molecule antagonists of the estrogen receptor beta (ER-beta) signaling pathway (AID 1259378; active = well fitted inhibition curve with a large enough effect in the signal ratio in the repeat runs, not every such curve was filed as active; the % refers to the signal ratio); conditions: ER-beta-UAS-bla HEK293T, beta-lactamase FRET ratio, 16 h; at 92.4 µM (top of the series) unless noted
Outline: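 ER-beta-UAS-bla HEK293T cells in 2% charcoal-stripped FBS medium treated with compound plus 1nM final 17-beta-estradiol for 16 hr at 37C. Beta-lactamase reporter read by FRET substrate fluorescence after 2 hours at room temperature.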
% is scaled to controls: 0 for no effect and ±100 for the full control effect.

| Structure (SMILES) | cytotoxicity increase [1] | activity change, negative = cytotoxicity [2] | Potency [3] | activity change, negative = inhibition [4] | activity change, negative = cytotoxicity [5] | viability change, negative = cytotoxic [6] | viability change, negative = cytotoxic [7] | activity change [8] | activity change, negative = inhibition [9] | Potency [10] | activity change, negative = cytotoxicity [11] | activity change, negative = cytotoxicity [12] | cAMP activity change [13] | activity change, negative = inhibition [14] | activity, negative = inhibition [15] | activity change, negative = inhibition [16] | activation [17] | activation [18] | activation [19] | activity, negative = inhibition [20] |
| --- | --- | --- | --- | --- | --- | --- | --- | --- | --- | --- | --- | --- | --- | --- | --- | --- | --- | --- | --- | --- |
| CCOP(=O)(Cl)Cl | inactive: -8.05% and inactive: -8.02% | inactive: 5.46% and inactive: 4.6% | inactive | inactive: 3.29% and inactive: -1.42% | inactive: 1.7% and inactive: 2.46% | inactive: 2.36% | inactive: 2.05% and inactive: -0.548% | inactive: 7.18% and inactive: -0.759% | inactive: 5.37% and inactive: 13.8% | inactive | inactive: 2.29% and inactive: -0.0404% | inactive: 0.339% and inactive: 5.01% | inactive: -6.71% and inactive: -0.0745% | inactive: -0.391% and inactive: -0.452% |  |  |  |  |  |  |
| CCC(=O)N(c1ccccc1)C1CCNCC1 |  | inactive: -11.6% [at 42.5 µM] | inactive | inactive: 3.73% [at 42.5 µM] | inactive: 1.45% [at 42.5 µM] | inactive: -0.339% [at 42.5 µM] | inactive: 1.64% [at 42.5 µM] | inactive: 0.866% [at 42.5 µM] | inactive: 3.51% [at 42.5 µM] | inactive | inactive: 4.08% [at 42.5 µM] | inactive: 5.36% [at 42.5 µM] | inactive: -1.64% [at 42.5 µM] | inactive: -0.296% [at 42.5 µM] | inactive: -11.2% [at 42.5 µM] | inactive: -0.736% [at 42.5 µM] | inactive: 4.42% [at 42.5 µM] | inactive: -0.0388% [at 42.5 µM] |  |  |
| CCOC(=O)N1CCC(=O)CC1 |  | inactive: 1.23% [at 42.5 µM] | inactive | inactive: -0.48% [at 42.5 µM] | inactive: 0.231% [at 42.5 µM] | inactive: 3.21% [at 42.5 µM] | inactive: 1.53% [at 42.5 µM] | inactive: 0.04% [at 42.5 µM] | inactive: 12.5% [at 42.5 µM] | inactive | inactive: 0.24% [at 42.5 µM] | inactive: 0.724% [at 42.5 µM] | inactive: 3.24% [at 42.5 µM] | inactive: 1.54% [at 42.5 µM] | inactive: -0.0657% [at 42.5 µM] |  | inactive: 0.28% [at 42.5 µM] |  | inactive: -3.44% [at 42.5 µM] | inactive: -6.41% [at 42.5 µM] |
| O=[N+]([O-])c1ccccc1[N+](=O)[O-] | inactive: -2.69% and inactive: 2.78% | inactive: -22.9% and inactive: -17.4% | active: 70.3 µM | inactive: -2.03% and inactive: -2.79% | inactive: -3.18% and inactive: -0.725% |  |  | inactive: 5.87% and inactive: -13.8% |  | active: 62.7 µM |  | inactive: -16.3% | inactive: -5.55% and inactive: -1.44% | inactive: 7.59% and inactive: 6.69% |  |  |  |  | inactive: -0.426% | inactive: -25.4% |
| CCOP(=S)(Cl)OCC | inactive: -2.28% | inactive: 12.1% | inactive | inactive: 3.23% | inactive: -1.57% | inactive: 2.9% | inactive: -1.07% | inactive: -2.43% | inactive: -7.94% | inactive | inactive: 5.62% | inactive: 2.84% | inactive: 7.12% | inactive: 3.43% |  |  |  |  |  |  |
| CC(C)OP(OC(C)C)OC(C)C | inactive: 1.75% | inactive: 3.31% | inactive | inactive: -2.91% | inactive: 4.64% | inactive: -13.5% | inactive: -10.2% | inactive: 0.905% | inactive: 15.9% | inactive | inactive: 5.15% | inactive: 11.9% | inactive: 1.54% | inactive: 1.93% | inactive: 0.307% |  | inactive: -2.4% |  | inactive: 3.96% | inactive: 0.698% |
| ClCCNCCCl | inactive: -18% | inactive: 6.48% | inactive | inactive: 3.46% | inactive: 0.185% | inactive: -2.47% | inactive: -4.58% | inactive: -1.8% | inactive: -11.5% | inactive | inactive: -3.53% | inactive: 0% | inactive: 3.44% | inactive: 0.627% | inactive: -1.14% | inactive: -0.186% | inactive: 2.56% | inactive: -0.0401% | inactive: -3.49% | inactive: 11.3% |
| ClCCOP(OCCCl)OCCCl | inactive: -10.8% and inactive: -12.2% | inactive: -10.3% and inactive: 3.11% | inactive | inactive: 2.52% and inactive: 2.61% | inactive: -5.15% and inactive: -1.06% | inactive: -13.3% and inactive: 3.1% | inactive: 3.3% and inactive: 2.67% | inactive: 0.187% and inactive: -0.658% | inactive: 20.4% and inactive: 13.8% | inactive | inactive: -0.515% and inactive: 1.46% | inactive: -0.191% and inactive: 5.43% | inactive: -5.69% | inactive: 0.293% and inactive: -0.439% |  | inactive: -7.73% and inactive: -1.47% |  | inactive: -0.0421% and inactive: -0.069% |  |  |
